# Measured affinities in a library of Ab-14 light chain variants

The target is the same throughout: PDVDLGDISGINAS, from the HR2 region of SARS-CoV-2 spike.

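Phage display of a naive human antibody library on the peptide gave the parent. Designed CDR sequences, proposed from the first random library and measured here. Their group label is 14L_Ctrl (Ctrl: baseline library sampled from a position-specific scoring matrix, with some repeated check sequences). The scFvs were displayed on barcoded MATa yeast, the peptide on MATalpha yeast. After mating in shaken culture at 30 °C for 16 h, diploids were selected and their barcode pairs sequenced. Read counts were normalised to the haploid input and turned into Kd by a linear fit to BCL2-family pairs of known affinity, for each replicate. Each pool was mated in six replicate cultures.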

Parent: Ab-14, a human scFv built as VH, three GGGGS repeats, VL. Only the CDRs of the light chain vary.
VH: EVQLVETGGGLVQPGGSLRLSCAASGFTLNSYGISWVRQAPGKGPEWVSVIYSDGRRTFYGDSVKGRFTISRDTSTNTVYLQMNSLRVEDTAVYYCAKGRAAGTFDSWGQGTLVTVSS
VL: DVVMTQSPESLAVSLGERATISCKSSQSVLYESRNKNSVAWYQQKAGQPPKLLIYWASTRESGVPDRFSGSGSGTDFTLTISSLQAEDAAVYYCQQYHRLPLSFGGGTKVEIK

Positions count from residue 1 of the parent VL; S25I puts I in place of S. The read-out is the apparent dissociation constant on a log10 scale (nM): the lower, the stronger. Replicates are averaged; those with no signal do not enter the mean. A pair that was not seen in that replicate is written "nd"; this usually means weak binding, but a binder can also be missed. The authors' rule: three or more of the six replicates give a measured affinity, fewer mean a poor binder. Values of this round are not directly comparable with the first-round values of the same sequences. Of ten entries with the parent sequence, four were seen in most replicates (averages 0.34 to 2.37), three in one and three in none, so single entries are noisy. As a blank, each scFv also met three strains without target: over all light chain designs, 4% of these pairings were detected, typically at 2.64 and seldom below 1.59. Also given: how often the same scFv was detected with the empty control strains, with their mean in brackets.

changes	log10 Kd, replicates	log10 Kd (nM), mean	control signals
S25I Q27T L30Y R34Y N35P P101W	2.90 3.07 1.98 1.83 2.94 2.78	2.58	0 of 18
W56Y R99Y	nd nd nd nd nd nd	nd	0 of 18
S25F S38H W56G	0.79 0.37 0.27 0.34 0.37 0.72	0.48	1 of 18 (3.01)
S25L Q27Y W56E Q96Y	2.43 nd 3.25 nd 1.46 2.35	2.37	1 of 18 (1.96)
S25E S26A A57D H98T	nd nd nd nd nd nd	nd	0 of 18
W56G S62D Q96D	0.03 -0.13 0.05 -0.32 -0.36 -0.06	-0.13	1 of 18 (3.45)
S26M Q27K S28K Y31M R34E V39I	2.97 nd 2.19 2.09 1.89 2.37	2.30	1 of 18 (2.32)
K24M V29S W56K S58D E61T	1.14 0.97 0.89 1.09 0.56 0.66	0.89	1 of 18 (2.46)
S26P Q27K V29Q K36C W56D S62E L102P S103I	nd nd nd nd nd nd	nd	0 of 18
S25L V29G Y31V R34S K36V S62H	0.97 1.07 0.82 0.82 1.10 1.23	1.00	3 of 18 (3.40)
Y31R Q95A L100M	nd nd nd nd nd nd	nd	0 of 18
R34E W56G E61N L102V	1.29 1.21 nd 1.00 2.36 1.67	1.51	0 of 18
S25C R34P S38G T59I H98M	1.00 0.92 1.20 0.95 1.19 0.91	1.03	0 of 18
S25I K36C	1.45 1.09 1.07 0.99 1.55 1.32	1.24	1 of 18 (3.16)
S103V	nd 2.52 nd 1.90 nd nd	2.21	0 of 18
S25M R34E T59Q E61F	0.82 0.62 1.01 0.40 0.66 0.86	0.73	2 of 18 (3.36)
Q27I W56D S62D	1.10 0.46 1.19 0.98 1.25 0.79	0.96	0 of 18
S25H R34D W56S	0.60 0.11 0.06 0.18 0.27 0.42	0.27	0 of 18
Q27Y V29L Y31G R99H	0.98 0.81 0.87 1.31 1.39 1.19	1.09	0 of 18
N37H H98N	nd 2.69 1.16 1.53 2.11 1.99	1.90	4 of 18 (2.47)
S25A E32T W56G S62D	0.71 0.22 0.06 0.20 0.44 0.28	0.32	1 of 18 (2.32)
S26E L30C T59H	nd 1.48 1.88 nd nd nd	1.68	0 of 18
S25C Y31A R34G Y97T H98A	nd nd nd nd nd nd	nd	0 of 18
K24M S26K	2.21 2.62 nd nd 2.43 3.09	2.59	1 of 18 (3.14)
S25I N35E	0.70 1.40 0.63 0.77 0.97 0.70	0.86	1 of 18 (2.35)
Q27E W56N S58K R99I	0.78 0.74 0.54 0.97 0.75 1.20	0.83	0 of 18
S25Y Y31E W56D	0.09 0.00 0.06 -0.05 0.21 0.21	0.09	1 of 18 (2.80)
S25V L30M S33A R34T	1.39 1.10 1.28 0.88 1.03 0.67	1.06	2 of 18 (2.78)
W56Y S58V	nd nd nd nd nd nd	nd	0 of 18
W56R	1.04 1.95 1.66 0.83 1.78 1.47	1.46	0 of 18
S25F K36P	0.58 0.92 0.05 0.97 0.01 0.06	0.43	0 of 18
W56A P101E	nd nd nd nd nd nd	nd	1 of 18 (1.03)
W56Y	1.34 2.77 2.32 1.40 2.87 2.25	2.16	1 of 18 (2.09)
V29W E32H	nd 2.62 nd 1.84 nd 4.12	2.86	1 of 18 (2.99)
S62Y R99V	nd nd nd nd nd nd	nd	0 of 18
S33V W56A Q96H	1.98 1.79 2.46 1.61 1.97 2.10	1.99	2 of 18 (2.27)
S58K Y97H	nd nd nd nd nd nd	nd	0 of 18
Y31P R34I W56N E61S S62H L102F	0.87 0.71 0.55 0.56 0.64 0.87	0.70	0 of 18
R34S N35Y W56G	0.22 0.26 0.17 -0.12 -0.03 0.14	0.11	2 of 18 (3.06)
V29G H98F L102I	1.39 1.69 2.39 1.19 nd 2.03	1.74	0 of 18
Y97M H98R L100W	nd nd 3.19 nd nd 2.46	2.83	2 of 18 (2.98)
Y31D E32T S33G K36R	1.07 1.09 0.77 0.78 0.81 1.36	0.98	0 of 18
S25F K36N N37K S62Q L102F	1.21 1.59 1.66 1.46 1.51 1.53	1.49	1 of 18 (3.14)
S25A Q27E V29D T59W H98F	1.62 1.69 nd 2.75 2.80 nd	2.21	1 of 18 (2.84)
S25F S26G Q27G E61N S62R H98Q	1.29 1.41 1.12 2.01 1.43 1.68	1.49	2 of 18 (2.25)
R34S S62D	nd nd nd nd 3.30 nd	3.30	0 of 18
S25D V29M R34T K36V	2.95 nd nd 1.20 nd nd	2.07	1 of 18 (1.82)
S25I S33H Y97I	nd nd nd 1.38 nd nd	1.38	0 of 18
S25P Y31S	nd nd nd nd 3.71 nd	3.71	1 of 18 (1.52)

Extract of 5 entries:

| changes | log10 Kd, replicates | log10 Kd (nM), mean | control signals |
|---|---|---|---|
| V29G H98F L102I | 1.39 1.69 2.39 1.19 nd 2.03 | 1.74 | 0 of 18 |
| S25I Q27T L30Y R34Y N35P P101W | 2.90 3.07 1.98 1.83 2.94 2.78 | 2.58 | 0 of 18 |
| S26E L30C T59H | nd 1.48 1.88 nd nd nd | 1.68 | 0 of 18 |
| R34S S62D | nd nd nd nd 3.30 nd | 3.30 | 0 of 18 |
| K24M V29S W56K S58D E61T | 1.14 0.97 0.89 1.09 0.56 0.66 | 0.89 | 1 of 18 (2.46) |

The measurements come from Li et al. 2023 (doi:10.1038/s41467-023-39022-2) through the FLAb antibody collection.